Reference: patent US11319321B2, “[1,2,4]triazolo[1,5-a]pyrimidine compounds as PDE2 inhibitors” (Janssen Pharmaceutica NV, priority 2016, dated 2022)

Chains of the proteins cited; added tags and fusions are not shown. Residues count along the entry.
UniProt Q9Y233, 267-1055: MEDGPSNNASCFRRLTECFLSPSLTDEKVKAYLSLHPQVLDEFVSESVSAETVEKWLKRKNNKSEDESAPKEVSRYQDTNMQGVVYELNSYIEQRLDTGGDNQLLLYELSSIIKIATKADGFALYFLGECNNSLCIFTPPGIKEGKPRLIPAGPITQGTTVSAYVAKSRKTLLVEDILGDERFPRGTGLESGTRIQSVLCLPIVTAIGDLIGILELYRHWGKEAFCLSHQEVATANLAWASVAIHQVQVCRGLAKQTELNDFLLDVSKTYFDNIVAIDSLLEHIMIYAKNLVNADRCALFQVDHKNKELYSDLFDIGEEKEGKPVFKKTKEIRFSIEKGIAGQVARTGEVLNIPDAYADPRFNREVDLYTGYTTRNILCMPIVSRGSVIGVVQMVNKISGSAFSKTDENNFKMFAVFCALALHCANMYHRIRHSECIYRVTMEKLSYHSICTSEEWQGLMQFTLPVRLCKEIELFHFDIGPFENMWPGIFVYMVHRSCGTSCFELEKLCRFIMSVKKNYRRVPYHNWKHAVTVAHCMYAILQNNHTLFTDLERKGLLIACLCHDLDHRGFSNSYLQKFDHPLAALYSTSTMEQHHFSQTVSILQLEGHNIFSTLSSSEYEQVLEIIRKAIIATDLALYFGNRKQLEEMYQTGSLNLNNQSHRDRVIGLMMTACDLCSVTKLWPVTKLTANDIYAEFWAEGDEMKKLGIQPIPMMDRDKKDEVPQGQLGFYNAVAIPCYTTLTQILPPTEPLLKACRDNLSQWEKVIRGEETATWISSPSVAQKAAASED
UniProt O00408, whole entry: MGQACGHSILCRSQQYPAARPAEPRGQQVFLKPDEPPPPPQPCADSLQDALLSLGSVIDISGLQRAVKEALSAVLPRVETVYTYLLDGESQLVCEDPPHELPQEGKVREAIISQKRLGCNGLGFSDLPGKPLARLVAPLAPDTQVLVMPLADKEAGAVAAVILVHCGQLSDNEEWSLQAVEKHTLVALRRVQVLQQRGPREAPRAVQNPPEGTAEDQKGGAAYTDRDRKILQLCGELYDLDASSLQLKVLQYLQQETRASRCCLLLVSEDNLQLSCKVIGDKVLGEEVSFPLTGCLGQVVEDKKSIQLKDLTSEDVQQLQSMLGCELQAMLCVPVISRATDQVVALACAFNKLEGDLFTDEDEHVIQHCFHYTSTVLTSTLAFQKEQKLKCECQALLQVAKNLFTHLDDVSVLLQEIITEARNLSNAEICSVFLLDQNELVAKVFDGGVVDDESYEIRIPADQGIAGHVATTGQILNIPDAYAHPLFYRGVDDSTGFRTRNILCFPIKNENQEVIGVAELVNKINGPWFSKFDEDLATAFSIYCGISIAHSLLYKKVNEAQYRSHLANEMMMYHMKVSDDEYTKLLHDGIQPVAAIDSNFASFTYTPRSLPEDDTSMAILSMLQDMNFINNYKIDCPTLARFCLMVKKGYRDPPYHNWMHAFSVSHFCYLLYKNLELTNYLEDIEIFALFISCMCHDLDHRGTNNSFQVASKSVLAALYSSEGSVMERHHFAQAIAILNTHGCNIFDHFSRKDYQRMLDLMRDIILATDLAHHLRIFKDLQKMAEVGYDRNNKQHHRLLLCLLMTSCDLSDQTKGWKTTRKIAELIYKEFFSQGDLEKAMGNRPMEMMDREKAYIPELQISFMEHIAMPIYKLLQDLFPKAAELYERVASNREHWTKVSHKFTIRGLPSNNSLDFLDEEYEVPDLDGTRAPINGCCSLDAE

target: hPDE10A2 (Homo sapiens, UniProt Q9Y233); assay: not given; conditions: human clone; 60 nM cAMP substrate

Row | SMILES | hPDE10A2 or rPDE10A2 Emax | hPDE10A2 or rPDE10A2 pIC50
1 | Cc1cc(CN2CC[C@H](C)[C@@](F)(c3cc(C(F)F)nc4ncnn34)C2)cc(C)n1 | 13% | <5
2 | C[C@@H]1CCN(C(c2ccccc2)C(F)(F)F)C[C@H]1c1cc(C(F)F)nc2ncnn12 (single isomer, unassigned) [31] | 51% | 5.01
3 | C[C@@H]1CCN(C(c2ccccc2)C(F)(F)F)C[C@H]1c1cc(C(F)F)nc2ncnn12 (single isomer, unassigned) [32] | 46% | <5

tested on: hPDE3B; assay: In vitro assay PDE3 (SPA, 3H-cAMP); conditions: 0.4 μM cAMP substrate

Row | SMILES | hPDE3B Emax | hPDE3B pIC50
4 | Cc1cc(CN2CC[C@H](C)[C@@](F)(c3cc(C(F)F)nc4ncnn34)C2)cc(C)n1 | 53% | ~5
5 | C[C@@H]1CCN(C(c2ccccc2)C(F)(F)F)C[C@H]1c1cc(C(F)F)nc2ncnn12 (single isomer, unassigned) [31] | 24% | <5
6 | C[C@@H]1CCN(C(c2ccccc2)C(F)(F)F)C[C@H]1c1cc(C(F)F)nc2ncnn12 (single isomer, unassigned) [32] | 35% | <5

target: Human recombinant PDE2A (hPDE2A) (Homo sapiens, UniProt O00408); assay: In vitro assay PDE2A (SPA, 3H-cGMP); type: biochemical; conditions: 10 μM cGMP substrate

Row | SMILES | hPDE2A Emax | hPDE2A pIC50
7 | Cc1cc(CN2CC[C@H](C)[C@@](F)(c3cc(C(F)F)nc4ncnn34)C2)cc(C)n1 | 75% | 5.42
8 | C[C@@H]1CCN(C(c2ccccc2)C(F)(F)F)C[C@H]1c1cc(C(F)F)nc2ncnn12 (single isomer, unassigned) [31] | 91% | 5.81
9 | C[C@@H]1CCN(C(c2ccccc2)C(F)(F)F)C[C@H]1c1cc(C(F)F)nc2ncnn12 (single isomer, unassigned) [32] | 96% | 6.07
